Experimental data as given in ChEMBL document CHEMBL1137169, “P4 cap modified tetrapeptidyl alpha-ketoamides as potent HCV NS3 protease inhibitors” (Bioorg Med Chem Lett, 2004).

Biological target: T1, Neutrophil elastase (Homo sapiens) (UniProt P08246)
T1 sequence (whole entry): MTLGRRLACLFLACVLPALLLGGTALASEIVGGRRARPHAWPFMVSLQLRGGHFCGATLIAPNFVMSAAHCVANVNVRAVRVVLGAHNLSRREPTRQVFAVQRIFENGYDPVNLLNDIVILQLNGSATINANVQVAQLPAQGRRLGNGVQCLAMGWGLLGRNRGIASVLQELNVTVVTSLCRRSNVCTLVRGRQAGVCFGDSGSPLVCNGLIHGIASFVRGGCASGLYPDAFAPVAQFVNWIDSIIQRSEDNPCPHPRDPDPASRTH
Experiment: Selectivity for human neutrophil elastase

Selectivity: 33
Structure (SMILES): CCC[C@H](NC(=O)[C@@H]1C2CCCC2CN1C(=O)[C@@H](NC(=O)[C@@H](NC(=O)c1cnccn1)C(C)C)C(C)C)C(=O)C(=O)NC1CC1 (stereo partly specified)
